{"source": "patent US5298499A", "about": "“S-2-(substituted ethylamino)ethyl phosphorothioates” (Research Triangle Institute, priority 1991, dated 1994)", "origin": "cited, not measured here", "key": {"[1]": {"tested_on": "mice", "settings": "10 GY, taken from T. R. Sweeney"}, "[2]": {"settings": "compared with compound 1 (dose levels)"}}, "note": "Like-named read-outs stand apart in the source and are kept apart here."}
{"smiles": "NC(=O)CCNCCSP(=O)(O)O", "values": [{"measurement": "30-Day Survival", "setting": "[1]; 25 mg/kg", "result": 0, "unit": "%"}, {"measurement": "30-Day Survival", "setting": "[1]; 50 mg/kg", "result": 0, "unit": "%"}, {"measurement": "toxicity", "setting": "[2]", "result": "more toxic compound"}]}
